US20110038791A1, “METHODS FOR INHIBITING SIX1 AND EYA PROTEINS” (priority 2008, published 2011)

Chains of the proteins cited; added tags and fusions are not shown. Lines headed by an entry give the natural chain unless they say otherwise; changes in a name come on top.
UniProt O00167: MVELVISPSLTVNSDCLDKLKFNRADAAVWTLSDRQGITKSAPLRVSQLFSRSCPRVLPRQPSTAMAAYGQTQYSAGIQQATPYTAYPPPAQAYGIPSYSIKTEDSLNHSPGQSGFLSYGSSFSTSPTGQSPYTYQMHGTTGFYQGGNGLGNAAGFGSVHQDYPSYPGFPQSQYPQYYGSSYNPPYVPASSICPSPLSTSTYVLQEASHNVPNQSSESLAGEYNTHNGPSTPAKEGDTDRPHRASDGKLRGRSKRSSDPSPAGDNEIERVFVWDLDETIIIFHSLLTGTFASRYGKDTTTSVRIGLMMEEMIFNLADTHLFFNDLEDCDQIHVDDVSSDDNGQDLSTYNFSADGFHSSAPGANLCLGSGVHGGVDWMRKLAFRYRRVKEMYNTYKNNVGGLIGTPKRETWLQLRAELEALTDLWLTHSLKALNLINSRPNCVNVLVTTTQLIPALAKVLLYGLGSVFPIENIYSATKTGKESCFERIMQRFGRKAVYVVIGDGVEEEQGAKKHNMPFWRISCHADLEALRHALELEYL

Molecular target: human Eya2 Eya Domain (ED) (Homo sapiens, UniProt O00167)
Test: Inhibition of the phosphatase activity of Eya2 Eya Domain (ED) by known phosphatase inhibitors
Format: biochemical
Conditions: read-out: IC50 for inhibition of Eya2 ED phosphatase activity, FIG. 20

Work on NaF yielded an IC50 of 6.6 mM.
